Assay results published in patent EP4834884A1, “TRPV3 INHIBITOR, AND PREPARATION THEREFOR AND USE THEREOF” (dated 2026).

The chains behind the UniProt entries cited, without tags or fusion partners.
UniProt Q8NET8, whole entry: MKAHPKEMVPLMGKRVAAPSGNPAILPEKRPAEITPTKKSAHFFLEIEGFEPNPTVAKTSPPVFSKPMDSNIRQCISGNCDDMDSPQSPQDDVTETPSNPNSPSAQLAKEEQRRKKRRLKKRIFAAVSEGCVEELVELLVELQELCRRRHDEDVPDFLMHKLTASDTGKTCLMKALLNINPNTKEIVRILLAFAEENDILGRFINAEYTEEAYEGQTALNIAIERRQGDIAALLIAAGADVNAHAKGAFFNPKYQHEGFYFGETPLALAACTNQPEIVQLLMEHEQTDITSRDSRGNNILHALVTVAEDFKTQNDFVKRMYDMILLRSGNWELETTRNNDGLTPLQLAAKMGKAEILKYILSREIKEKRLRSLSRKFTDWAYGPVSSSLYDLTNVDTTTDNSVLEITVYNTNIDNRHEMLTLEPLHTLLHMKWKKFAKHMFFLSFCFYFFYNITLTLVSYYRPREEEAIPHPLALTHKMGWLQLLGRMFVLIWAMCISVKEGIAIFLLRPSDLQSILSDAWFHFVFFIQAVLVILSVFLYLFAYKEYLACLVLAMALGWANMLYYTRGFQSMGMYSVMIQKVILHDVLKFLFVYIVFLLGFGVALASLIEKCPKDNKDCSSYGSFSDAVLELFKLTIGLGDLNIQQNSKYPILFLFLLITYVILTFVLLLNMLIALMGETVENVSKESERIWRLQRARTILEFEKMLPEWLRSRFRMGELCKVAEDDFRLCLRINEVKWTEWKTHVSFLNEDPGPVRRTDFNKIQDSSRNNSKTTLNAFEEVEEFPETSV
UniProt Q8K424, whole entry: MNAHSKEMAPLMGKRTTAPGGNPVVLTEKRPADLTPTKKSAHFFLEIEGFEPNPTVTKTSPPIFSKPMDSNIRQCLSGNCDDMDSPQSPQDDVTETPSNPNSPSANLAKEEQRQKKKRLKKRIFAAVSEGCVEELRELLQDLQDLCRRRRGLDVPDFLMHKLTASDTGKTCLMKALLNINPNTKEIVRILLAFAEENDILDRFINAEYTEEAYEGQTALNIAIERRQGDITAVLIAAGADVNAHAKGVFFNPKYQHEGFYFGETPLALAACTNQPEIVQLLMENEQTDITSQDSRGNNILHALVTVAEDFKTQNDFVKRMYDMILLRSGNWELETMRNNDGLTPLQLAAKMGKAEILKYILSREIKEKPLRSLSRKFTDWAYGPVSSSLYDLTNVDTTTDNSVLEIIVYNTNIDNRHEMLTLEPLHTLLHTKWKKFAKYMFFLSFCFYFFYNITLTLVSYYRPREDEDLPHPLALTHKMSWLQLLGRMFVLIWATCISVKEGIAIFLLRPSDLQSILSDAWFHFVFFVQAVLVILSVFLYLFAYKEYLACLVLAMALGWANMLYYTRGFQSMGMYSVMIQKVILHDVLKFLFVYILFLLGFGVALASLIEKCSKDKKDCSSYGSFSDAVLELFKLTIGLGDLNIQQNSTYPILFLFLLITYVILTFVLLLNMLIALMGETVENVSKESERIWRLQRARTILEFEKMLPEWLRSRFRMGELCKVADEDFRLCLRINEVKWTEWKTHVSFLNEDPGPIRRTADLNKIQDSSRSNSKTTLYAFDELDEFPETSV
UniProt Q8NER1, whole entry: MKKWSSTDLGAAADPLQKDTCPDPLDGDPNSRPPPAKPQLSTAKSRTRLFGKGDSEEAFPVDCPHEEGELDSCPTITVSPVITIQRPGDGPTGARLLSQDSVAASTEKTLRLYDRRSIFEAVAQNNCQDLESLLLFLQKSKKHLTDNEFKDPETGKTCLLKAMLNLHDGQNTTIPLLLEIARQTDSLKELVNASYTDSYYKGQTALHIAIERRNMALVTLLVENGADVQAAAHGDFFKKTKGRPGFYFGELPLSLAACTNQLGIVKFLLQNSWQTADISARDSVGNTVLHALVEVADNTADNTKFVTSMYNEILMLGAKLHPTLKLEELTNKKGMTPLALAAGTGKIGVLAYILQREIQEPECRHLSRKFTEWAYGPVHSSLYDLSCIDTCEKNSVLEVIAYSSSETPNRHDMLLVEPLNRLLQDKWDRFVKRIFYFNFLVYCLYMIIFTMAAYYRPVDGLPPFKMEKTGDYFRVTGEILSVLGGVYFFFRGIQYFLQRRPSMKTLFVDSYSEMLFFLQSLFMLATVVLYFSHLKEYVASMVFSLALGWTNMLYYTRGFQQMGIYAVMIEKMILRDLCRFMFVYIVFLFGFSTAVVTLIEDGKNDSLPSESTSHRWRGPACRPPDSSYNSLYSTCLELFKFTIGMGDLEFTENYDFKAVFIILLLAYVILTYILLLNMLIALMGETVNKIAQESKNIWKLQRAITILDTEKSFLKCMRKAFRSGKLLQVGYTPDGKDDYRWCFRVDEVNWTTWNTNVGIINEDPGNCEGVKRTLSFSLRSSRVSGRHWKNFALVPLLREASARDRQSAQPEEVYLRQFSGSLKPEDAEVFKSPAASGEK
UniProt Q9EPK8, whole entry: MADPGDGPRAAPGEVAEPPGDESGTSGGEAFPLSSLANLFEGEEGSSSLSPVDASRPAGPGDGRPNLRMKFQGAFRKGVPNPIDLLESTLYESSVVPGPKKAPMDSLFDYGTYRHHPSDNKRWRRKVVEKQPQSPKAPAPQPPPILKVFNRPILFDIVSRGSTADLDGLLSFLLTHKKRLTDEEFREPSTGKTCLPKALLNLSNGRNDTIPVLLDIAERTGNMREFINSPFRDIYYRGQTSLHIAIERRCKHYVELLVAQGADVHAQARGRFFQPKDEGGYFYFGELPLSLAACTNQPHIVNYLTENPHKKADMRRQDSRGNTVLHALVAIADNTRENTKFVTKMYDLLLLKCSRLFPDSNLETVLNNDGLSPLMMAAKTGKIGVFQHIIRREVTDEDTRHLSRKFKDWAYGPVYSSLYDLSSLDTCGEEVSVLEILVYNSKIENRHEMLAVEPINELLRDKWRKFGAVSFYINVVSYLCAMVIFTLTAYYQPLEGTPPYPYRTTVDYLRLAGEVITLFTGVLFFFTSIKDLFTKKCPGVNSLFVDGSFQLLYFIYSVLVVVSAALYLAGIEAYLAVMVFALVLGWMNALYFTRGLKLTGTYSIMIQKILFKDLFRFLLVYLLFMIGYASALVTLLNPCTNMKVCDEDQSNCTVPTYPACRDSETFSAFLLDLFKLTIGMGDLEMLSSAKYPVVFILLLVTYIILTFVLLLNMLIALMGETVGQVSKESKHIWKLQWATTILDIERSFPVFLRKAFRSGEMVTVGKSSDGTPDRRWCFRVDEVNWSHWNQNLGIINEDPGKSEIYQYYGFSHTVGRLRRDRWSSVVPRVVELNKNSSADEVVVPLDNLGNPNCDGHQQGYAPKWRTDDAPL
UniProt O75762, whole entry: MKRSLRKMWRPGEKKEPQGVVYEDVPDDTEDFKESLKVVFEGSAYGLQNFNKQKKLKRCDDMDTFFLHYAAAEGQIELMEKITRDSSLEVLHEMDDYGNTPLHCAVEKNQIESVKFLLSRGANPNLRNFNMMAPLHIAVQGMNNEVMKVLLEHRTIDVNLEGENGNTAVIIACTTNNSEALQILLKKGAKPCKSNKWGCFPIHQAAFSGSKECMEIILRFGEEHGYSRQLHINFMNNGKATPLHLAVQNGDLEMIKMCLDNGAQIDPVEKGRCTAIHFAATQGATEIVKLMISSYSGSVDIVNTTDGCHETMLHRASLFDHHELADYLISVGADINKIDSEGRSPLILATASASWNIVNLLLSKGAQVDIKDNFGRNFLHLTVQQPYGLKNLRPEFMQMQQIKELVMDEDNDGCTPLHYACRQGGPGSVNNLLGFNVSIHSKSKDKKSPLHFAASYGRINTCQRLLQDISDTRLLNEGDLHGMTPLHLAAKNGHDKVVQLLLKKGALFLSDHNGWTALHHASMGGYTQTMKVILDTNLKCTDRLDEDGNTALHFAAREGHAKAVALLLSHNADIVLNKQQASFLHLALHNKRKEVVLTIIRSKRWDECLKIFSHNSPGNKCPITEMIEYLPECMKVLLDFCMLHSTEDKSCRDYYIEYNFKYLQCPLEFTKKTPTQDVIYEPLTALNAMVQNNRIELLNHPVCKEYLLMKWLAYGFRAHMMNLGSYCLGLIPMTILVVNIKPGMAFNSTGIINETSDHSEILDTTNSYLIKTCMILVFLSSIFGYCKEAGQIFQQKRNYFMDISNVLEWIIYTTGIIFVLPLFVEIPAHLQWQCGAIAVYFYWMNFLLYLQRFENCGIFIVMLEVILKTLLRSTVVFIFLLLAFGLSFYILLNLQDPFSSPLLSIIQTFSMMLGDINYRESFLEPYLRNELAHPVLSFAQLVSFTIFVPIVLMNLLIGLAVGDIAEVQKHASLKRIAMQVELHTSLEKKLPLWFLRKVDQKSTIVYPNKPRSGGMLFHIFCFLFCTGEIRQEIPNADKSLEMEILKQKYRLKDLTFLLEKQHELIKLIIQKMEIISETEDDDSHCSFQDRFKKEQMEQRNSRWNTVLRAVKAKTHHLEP

Legend:
hTRPV3 = hTRPV3 (Homo sapiens, UniProt Q8NET8); test: Whole-cell patch-clamp inhibition of hTRPV3 in transfected HEK-293 cells; details: hTRPV3 in HEK-293 cells, agonist 2-APB (3 mM), holding potential -60 mV, antagonist pre-administered 1 minute
Description: Human embryonic kidney cells (HEK-293) (obtained from the Cell Bank of the Chinese Academy of Sciences) were cultured in Dulbecco's Modified Eagle's Medium (DMEM, obtained from Gibco) supplemented with 10% fetal bovine serum (FBS, obtained from PAM) in an incubator with 95% air and 5% carbon dioxide at 37°C. The HEK-293 cells was transfected with Human TRPV3 (hTRPV3) plasmids using a calcium phosphate transfection solution comprising two types of solutions: solution A containing 250 mM CaCl2 in pure water and solution B containing 1.5 mM Na2HPO4, 140 mM NaCl and 50 mM HEPES (with pH adjusted to 6.96). All the electrophysiological data were recorded 24 hours post transfection at the room temperature using an Axon 200B, with a holding potential of -60 mV. […] The Cells were immersed in a standard extracellular solution containing 150 mM NaCl, 5 mM KCl, 10 mM glucose, 2 mM CaCl2, 1 mM MgCl2 and 10 mM HEPES (with pH adjusted to 7.4 with Tris-base). The TRPV3 agonist 2-APB (3 mM), the TRPV1 agonist capsaicin (1 µM), the TRPV4 agonist GSK1016790A (100 nM) as well as each of the antagonists were diluted with a Ca^2+-free extracellular solution containing 150 mM NaCl, 5 mM KCl, 10 mM glucose and 10 mM HEPES (with pH adjusted to 7.4 with Tris-base) to prevent Ca^2+-induced channel desensitization. The Data were collected at 10 kHz and filtered at 2 kHz. Channels were repeatedly stimulated with agonists to ensure complete channel sensitization. Each of the antagonists was pre-administered for 1 minute, and then co-administered in the presence of an agonist. In addition, the TRPA1 agonist AITC (10 µM) and its antagonist (0.01-100 µM, approximately 3-fold dilution) were diluted with an agonist solution containing 150 mM NaCl, 5 mM KCl, 1 mM MgCl2, 10 mM glucose and 10 mM HEPES (with pH adjusted to 7.4 with Tris-base). TRPA1 was first stimulated to be openned with the agonist, followed by coadministration in the presence of the agonist. The Raw data were analyzed with a software of Origin to generate the curves. The values of IC50 values calculated using the Hill equation.

mTRPV3 = mTRPV3 (Mus musculus, UniProt Q8K424); test: Whole-cell patch-clamp inhibition of mTRPV3 (same method); details: mTRPV3, same conditions as hTRPV3
Description: (§1) Human embryonic kidney cells (HEK-293) (obtained from the Cell Bank of the Chinese Academy of Sciences) were cultured in Dulbecco's Modified Eagle's Medium (DMEM, obtained from Gibco) supplemented with 10% fetal bovine serum (FBS, obtained from PAM) in an incubator with 95% air and 5% carbon dioxide at 37°C. The HEK-293 cells was transfected with Human TRPV3 (hTRPV3) plasmids using a calcium phosphate transfection solution comprising two types of solutions: solution A containing 250 mM CaCl2 in pure water and solution B containing 1.5 mM Na2HPO4, 140 mM NaCl and 50 mM HEPES (with pH adjusted to 6.96). All the electrophysiological data were recorded 24 hours post transfection at the room temperature using an Axon 200B, with a holding potential of -60 mV. […] The Cells were immersed in a standard extracellular solution containing 150 mM NaCl, 5 mM KCl, 10 mM glucose, 2 mM CaCl2, 1 mM MgCl2 and 10 mM HEPES (with pH adjusted to 7.4 with Tris-base). […] The Raw data were analyzed with a software of Origin to generate the curves. The values of IC50 values calculated using the Hill equation.
(§2) The values of IC50 (nM) of representative compounds of the present invention for inhibition of mTRPV3 (mouse TRPV3) and other TRP channels such as hTRPV1, mTRPV4 and hTRPA1 were also determined under the same conditions using the above described methods and materials. […]

hTRPV1 = hTRPV1 (Homo sapiens, UniProt Q8NER1); test: Whole-cell patch-clamp inhibition of hTRPV1 (same method); details: hTRPV1, agonist capsaicin (1 µM)
Description: as §1, §2

mTRPV4 = mTRPV4 (Mus musculus, UniProt Q9EPK8); test: Whole-cell patch-clamp inhibition of mTRPV4 (same method); details: mTRPV4, agonist GSK1016790A (100 nM)
Description: as §1, §2

hTRPA1 = hTRPA1 (Homo sapiens, UniProt O75762); test: Whole-cell patch-clamp inhibition of hTRPA1 (same method); details: hTRPA1, agonist AITC (10 µM)
Description: as §1, §2

[1] = tested on: carvacrol-induced pruritus model in mice; test: Carvacrol-induced pruritus model in mice, topical application; details: 50 µl applied on depilated nape 30 minutes before intradermal 2% carvacrol, vehicle control 74.25±13.76
From the text: Carvacrol as a skin sensitizer has been proven to induce pruritus in mice by activating TRPV3 channels. […] Therefore, the carvacrol-induced pruritus model in mice can be used to evaluate the targeting of compounds for inhibiting TRPV3 and the pharmacological efficacy against pruritus.
64 SPF-grade C57BL/6 mice (male, 6-8 weeks old) were used as laboratory animals. After adaptive feeding, the mice were randomly divided into 8 groups: a normal control group, a model group, a vehicle control, a positive control group, a Compound 18 (2% concentration) group, a Compound 18 (8% concentration) group, a Compound 25 (2% concentration) group and a Compound 25 (8% concentration) group, with 8 mice per group. Two days before the experiment, a 2 x 3 cm^2 area on the nape of the animals was depilated. 30 minutes before modeling, the respective test compound or vehicle was applied on the depilated area on the nape according to the corresponding group in an amount of 50 µl per animal. 30 minutes after administration of the test substance, all the animals except the blank control group received an intradermal injection of 2% carvacrol at the nape at an injection dose of 50 µl per animal. An acute pruritus model was established, with scratching the head with forepaws, scratching the trunk with hind paws, and biting various body parts by the mouth as pruritus indicators. Sustained scratching of the modeling area by hind paws was counted as one scratch. If the animal paused, licked its paw, or put its hind paws down during scratching, it was counted as a second scratch when scratching again. The number of scratches during the observation period was observed and recorded, with the number of scratches at each time point being counted at 5-minute intervals, and the total number of scratches within 30 minutes was summarized.
Raw data were analyzed using a software of GraphPad, and were statistically analyzed using one-way ANOVA. […]

Row | Compound | IC50 (hTRPV3) [nM] | also measured
1 | Cc1ccc(OCCn2c(C(F)(F)F)nc3cc(Cl)c(Cl)cc32)cc1 | 100 | 
2 | Cc1ccc2c(c1)nc(C(F)(F)F)n2CCOc1ccc(C(F)(F)F)cc1 | 98 | 
3 | Cc1ccc(OCCn2c(C(F)(F)F)nc3cc(F)c(F)cc32)cc1 | 1100 | 
4 | Cc1ccc(OCCn2c(C(F)(F)F)nc3cc(C(F)(F)F)ccc32)cc1 | 51 | IC50 (mTRPV3): 73 nM; IC50 (hTRPV1): 1620 nM; IC50 (mTRPV4): 3890 nM; IC50 (hTRPA1): > 300000 nM
5 | 1-(2-((5-methylpyrid-2-yl)oxy)ethyl)-2,5-bis(trifluoromethyl)-1H-benzo[d]imidazole | 66 | pruritus numbers (total number of scratches within 30 minutes) ([1]; 8% concentration): 42.75±11.42
6 | Cc1ccc(OCCn2c(C(F)(F)F)nc3cc(C#N)ccc32)cc1 | 220 | 
7 | Cc1ccc(OCCn2c(C(F)(F)F)nc3cc(F)ccc32)cc1 | 2440 | 
8 | Cc1ccc(OCCn2c(C(F)(F)F)nc3cc(Cl)ccc32)cc1 | 85 | pruritus numbers (total number of scratches within 30 minutes) ([1]; 2% concentration): 13.00±6.11; pruritus numbers (total number of scratches within 30 minutes) ([1]; 8% concentration): 9.25±2.80
